Data published in PMC8392593.

Experiments:
[1] = molecular target: GST-MuRF1 (muscle-specific RING finger protein 1, TRIM63), labelled with NT-647 (rat) (UniProt Q91Z63); assay: other fluorescence titration; fluorescence quenching on Monolith NT.115; labelled MuRF1 5 nM, G-actin 25 μM to 0.763 nM, in G buffer to keep a-actin monomeric
[2] = molecular target: GST-MuRF1 (muscle-specific RING finger protein 1, TRIM63), labelled with NT-647 (rat) (UniProt Q91Z63); assay: other fluorescence titration; fluorescence quenching on Monolith NT.115; labelled MuRF1 5 nM, F-actin 6.25 μM to 0.763 nM, in F buffer to keep a-actin filamentous

| Kd [1] [nM] | Kd [2] [nM] | Substance |
| --- | --- | --- |
| 450 |  | monomeric globular alpha-actin (G-actin) from rabbit skeletal muscle (from UniProt P68135 1-377) (natural protein; other documents disagree on this pair) |
|  | 46.7 | filamentous alpha-actin (F-actin) from rabbit skeletal muscle (from UniProt P68135 1-377) (natural protein; other documents disagree on this pair) |
